Km, kcat and kcat/Km data for 1 protein are collected here from paper PMC6980832, “Crystal structures of Triosephosphate Isomerases from Taenia solium and Schistosoma mansoni provide insights for vaccine rationale and drug design against helminth parasites” (PLoS Neglected Tropical Diseases, 2020).

The term Km denotes the substrate concentration at which the rate is half of its maximum. As a reminder, the kcat is the number of substrate molecules converted per active site and unit of time at saturation. The term kcat/Km denotes the turnover number divided by the Michaelis constant.

Substrate in the data set: O=CC(O)COP(=O)(O)O
Briefly: purified protein. As to conditions: 0.1 M TEA-HCl pH 7.4, 10 mM EDTA, 0.2 mM NADH, 21 °C, G3P 0 to 5 mM, G3P to DHAP direction.

B1: HsTPI (Homo sapiens) (protein)
chain: APSRKFFVGGNWKMNGRKQSLGELIGTLNAAKVPADTEVVCAPPTAYIDFARQKLDPKIAVAAQNCYKVTNGAFTGEISPGMIKDCGATWVVLGHSERRHVFGESDELIGQKVAHALAEGLGVIACIGEKLDEREAGITEKVVFEQTKVIADNVKDWSKVVLAYEPVWAIGTGKTATPQQAQEVHEKLRGWLKSNVSDAVAQSTRIIYGGSVTGATCKELASQPDVDGFLVGGASLKPEFVDIINAKQ
Consider B1, for which the Km was 610 ± 20 µM, the kcat worked out at 4010 s⁻¹ and the kcat/Km was 6.54e+06 M⁻¹ s⁻¹.
